Chains of the proteins cited; added tags and fusions are not shown. Lines headed by an entry give the natural chain unless they say otherwise; changes in a name come on top.
UniProt Q8TCC7: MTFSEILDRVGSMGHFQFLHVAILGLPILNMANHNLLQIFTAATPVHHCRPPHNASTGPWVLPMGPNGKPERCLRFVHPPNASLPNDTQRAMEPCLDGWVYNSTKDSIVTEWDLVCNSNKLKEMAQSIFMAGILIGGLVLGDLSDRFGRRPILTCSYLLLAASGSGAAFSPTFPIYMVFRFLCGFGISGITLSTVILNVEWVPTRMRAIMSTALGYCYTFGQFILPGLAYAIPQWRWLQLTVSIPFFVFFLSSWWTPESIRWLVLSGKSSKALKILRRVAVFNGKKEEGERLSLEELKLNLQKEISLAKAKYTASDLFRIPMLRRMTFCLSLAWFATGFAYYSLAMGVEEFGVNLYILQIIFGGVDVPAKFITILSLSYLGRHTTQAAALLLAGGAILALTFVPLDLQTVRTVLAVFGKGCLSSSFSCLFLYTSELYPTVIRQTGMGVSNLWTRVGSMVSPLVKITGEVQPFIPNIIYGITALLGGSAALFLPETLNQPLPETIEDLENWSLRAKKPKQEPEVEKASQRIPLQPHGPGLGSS

In patent US20200061212A1, “SOLID ORAL COMPOSITION CONTAINING DYES” (COSMO TECHNOLOGIES LTD., priority 2016, published 2020):

Target: OAT3 (Homo sapiens, UniProt Q8TCC7)
Settings: in vitro studies

CN(C)c1ccc2nc3ccc(=[N+](C)C)cc-3sc2c1 [Methylene blue, Methylthioninium Chloride (Methylene Blue)]
substrate of the membrane transport protein OAT3: possible substrate
